# Rango complex inh – inhibitors of Rango-importin beta complex formation; hit rate 0.031% among 340,000; Potency, µM (highest dose often 92.2 µM); Q14974; AID 540263; Rango CFP/YFP FRET sensor + importin beta, 45 min; note: nearly all actives have a fitted effect of over 15% in size
#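 Inhibition scored from the CFP 486 nm/YFP 530 nm FRET ratio 45 min after adding 0.125 microM importin beta to 50 nM Rango biosensor preincubated 5 min with compound (room temperature, PBS with DTT, Tween-20, BSA). No-importin wells as positive control.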
# Giardia killer – kills Giardia lamblia | Giardia lamblia trophozoite viability | activity change, % at 7.66 µM, hits read low | hit rate 0.15% among 340,000; in the data active = activity change below about -80%; inconclusive = between about -30% and that limit;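 note: parasites exposed to compound for two days anaerobically before the ATP read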
#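 Each well holds 100 Giardia trophozoites and compound. After two days (48 hrs) at 37 deg C in anaerobic conditions, ATP is quantified by luminescence.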
# Integrin act MD – integrin-mediated muscular dystrophy alleviation activation; alpha7betagal myoblasts, beta-gal FDG fluorescence, 48 h; hit rate 0.064% among 350,000; Potency, µM (series often up to 38.3 µM), actives largely listed as activators; AID 624291; active = well fitted activation curve with a large enough effect; inconclusive = small, poorly fitted or top-dose-only effect; inactive = no such curve, though single readings can be large or run the other way; note: nearly all actives have a fitted effect of over 60% in size
#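 alpha7betagal+/- myoblasts (passage 13, 250/well) treated 48 h at 37C with compounds at 1:260 dilution of DMSO stock. Lysed, then beta-galactosidase activity read as FDG fluorescence (ex 480/em 540) after 30 min, with pre-read for autofluorescence.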
# Rango dissoc inh – inhibitors of RanGTP-induced Rango-importin beta complex dissociation; O95149+P62826; AID 540253; Potency, µM (top dose mostly 46.1 µM); Biochemical FRET Rango-importin beta, RanGTP-induced dissociation; hit rate 0.071% among 340,000; note: nearly all actives have a fitted effect of over 45% in size
#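 Quantitative HTS using a FRET biosensor: 0.1 uM Rango, 0.25 uM importin beta, 0.6 uM Ran, 2 mM GTP, 0.2 uM RCC1 final, PBS with DTT, Tween-20 and BSA. Post-read taken 45 min after Ran addition.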
# uPA generation – cell surface uPA generation inhibition; cell surface uPA generation assay, qHTS; Potency, µM (highest dose often 38.3 µM), actives largely listed as inhibitors; hit rate 0.31% among 330,000; active = well fitted inhibition curve with a large enough effect; inconclusive = small, poorly fitted or top-dose-only effect; inactive = no such curve, though single readings can be large or run the other way; tested in mouse RAW 264.7 cells; note: nearly all actives have a fitted effect of over 55% in size
# A number is an active result; - = inactive; ? = inconclusive; . = not tested or not shown. This is a sample that favours compounds with a hit; in the whole collection about 0.59% have one here. Unless noted, calls come from the whole dose curve.
SMILES,Rango complex inh,Giardia killer,Integrin act MD,Rango dissoc inh,uPA generation
C=CCN(CC=C)C(=O)c1cccc(OC2CCN(S(=O)(=O)N(C)C)CC2)c1,-,-,-,-,-
C=CCN(CC=C)C(=O)c1ccc(OC2CCN(S(=O)(=O)N(C)C)CC2)cc1,-,-,5µM,-,.
CC(C)C1C(=O)N(Cc2cn(Cc3ccco3)nn2)CCS(=O)(=O)N1Cc1ccc(-c2ccc(F)cc2)cc1 (configuration not stated),.,.,-,.,.
COc1ccc(/C=C/C(=O)c2ccc(O)cc2)cc1CN1CCOCC1,-,-,-,-,-
O=C(/C=C/c1cccc(O)c1)c1ccc(N2CCOCC2)cc1,?,-,-,-,10µM
S=c1[nH]nc(Cn2cnc3ccccc32)n1-c1ccccc1,-,-,8.9µM,-,-
COc1ccc(-n2ncc3c(N(C)C4CCCCC4)ncnc32)cc1,-,?,-,-,?
Cc1cccc(-n2ncc3c(N(C)C4CCCCC4)ncnc32)c1,-,?,-,-,1.4µM
CCc1cccc2sc(N3CCN(C(=O)c4ccc([N+](=O)[O-])o4)CC3)nc12,-,?,-,-,7.9µM
COc1ccc(Br)cc1C(C[N+](=O)[O-])c1c(N)n(C)c(=O)n(C)c1=O (configuration not stated),-,-,-,-,3.5µM
CCOc1[nH]n(-c2ccccc2)c(=O)c1C=Nc1ccccc1,-,-,-,-,6.3µM
CCOc1[nH]n(-c2ccccc2)c(=O)c1C=Nc1ccc(C)cc1,-,-,-,-,-
COc1ccc(-c2ccc(C(C)=O)cc2)cc1C1C2C=CCC(C)C2C(=O)N1Cc1ccccc1 (configuration not stated),.,-,.,.,.
O=[N+]([O-])c1cnc(Sc2ccncn2)c([N+](=O)[O-])c1,.,.,-,.,.
O=[N+]([O-])c1cnc(Sc2ccncn2)s1,-,-,-,-,2.8µM
COc1ccc(N/N=C/c2c(C(=O)O)ccc3ccccc23)cc1,?,-,-,?,10µM
O=C(COc1cccnc1[N+](=O)[O-])Nc1ccc2c(c1)OC(F)(F)O2,-,-84,-,-,-
COc1ccc(NC(=O)COc2cccnc2[N+](=O)[O-])cc1OC,-,-,-,-,-
CCCN(CCC)CCCNC(=O)c1cc2c(=O)n(CC)c3ccccc3c2s1,-,-,-,-,-
CCn1c(=O)c2cc(C(=O)NCCCOC)sc2c2ccccc21,-,-,-,-,5.6µM
O=C(NCCc1ccc(F)cc1)N[C@@H](Cc1ccccc1)C(=O)O,-,-,11µM,-,-
C[C@H](CO)N1C[C@H](C)[C@@H](CN(C)C(=O)NC2CCCCC2)Oc2c(NC(=O)C3CCCCC3)cccc2C1=O,-,-,-,-,-
Cc1ccc(O)c(N=Nc2nccs2)c1,-,?,-,-,2.2µM
COc1ccc(N=Nc2cc(C)ccc2O)cc1,-,-,?,-,?
Cc1ccc(C(=O)c2c3ccc([N+](=O)[O-])cc3[n+]([O-])n2CCCN)cc1,-,?,-,-,0.63µM
SMILES,Rango complex inh,Giardia killer,Integrin act MD,Rango dissoc inh,uPA generation
Cc1ccc(C(=O)c2c3ccc(C(F)(F)F)cc3[n+]([O-])n2CCCN)cc1,-,-90,-,-,-
O=S(=O)(c1ccccc1Br)N1CCN(c2nc(-c3cccs3)nc3ccccc23)CC1,.,-,.,.,.
CC1(C)c2[nH]c3ccccc3c2C[C@@H]2C(=O)N(Cc3ccccc3)C(=O)N21,?,-,.,21µM,-
CCS(=O)(=O)N1CCCC(C(=O)c2ccc(OC)cc2C)C1 (configuration not stated),-,-,11µM,-,.
NC(=O)C(=O)N/N=C/c1c2ccccc2cc2ccccc12,-,-,-,15µM,-
Cc1cc(C(=O)N/N=C/c2c3ccccc3cc3ccccc23)n[nH]1,?,-,-,?,-
CCCCC(CC)CN=C(N)NC(N)=NCCCCCCN=C(N)NC(N)=NCC(CC)CCCC (configuration not stated),58µM,-,.,?,?
CCCCC(CC)CO (configuration not stated),-,-,-,-,-
COc1cccc(C(=O)Nc2sc3c(c2C#N)CCN(C(C)=O)C3)c1,?,-,-,?,0.4µM
CC(=O)Nc1cccc(-c2cn3ccc(C)cc3n2)c1,-,-,-,-,?
Cc1ccn2cc(-c3cccc(NC(=O)CCC(=O)O)c3)nc2c1,-,?,-,-,3.5µM
Cc1ccn2cc(-c3ccc(Br)cc3)nc2c1,-,?,-,-,2.8µM
Cc1ccc(S(=O)(=O)Nc2ccc(-c3cn4ccc(C)cc4n3)cc2)cc1,-,-,-,-,-
O=C(c1ccc(O)cc1)c1ccc(O)cc1O,-,-,-,-,-
O=C(c1ccccc1)c1ccc(O)cc1O,58µM,-,?,-,-
Cc1cc(C2=NNC(=NC3CC3)SC2)c(C)n1-c1ccccc1F,-,?,-,-,1.6µM
COc1ccc(Cl)cc1C(=O)NNC(=O)c1nn(C)c(=O)c2ccccc12,-,-,-,-,-
CCC(C)C(=O)OC1CCC=C2C=CC(C)C(CCC3CC(O)CC(=O)O3)C21 (configuration not stated),-,-,-,-,-
CC[C@H](C)C(=O)O[C@H]1CCC=C2C=C[C@H](C)[C@H](CC[C@@H]3C[C@@H](O)CC(=O)O3)[C@H]21,-,-,.,?,1.3µM
COc1ccc(-c2cc(C(=O)Nc3cccc(O)c3)no2)cc1,-,?,?,-,5µM
O=C1C=C(Nc2cccc(O)c2)CC(c2ccco2)C1 (configuration not stated),?,-,-,12µM,-
O=C1C=C(Nc2ccc(Cl)cc2)CC(c2ccco2)C1 (configuration not stated),-,-,-,-,-
COc1ccccc1CNC(=O)CN1C(=O)NC2(CCC(C)CC2)C1=O (configuration not stated),-,-,-,-,-
CC(=O)c1ccc(N(C(=O)CNC(=O)c2ccco2)C(C(=O)NC2CCCC2)c2ccc(C)o2)cc1 (configuration not stated),-,-,10µM,-,-
CC(=O)Nc1ccc(S(=O)(=O)NCC(=O)Nc2ccc3c(c2)OCO3)cc1,-,-,-,-,-
SMILES,Rango complex inh,Giardia killer,Integrin act MD,Rango dissoc inh,uPA generation
O=C(c1ccco1)N1CCN(c2c([N+](=O)[O-])nn(-c3cccc(Cl)c3)[n+]2[O-])CC1,-,-87,-,-,-
O=C(c1cc(S(=O)(=O)N2CCOCC2)ccc1Cl)N1CCC(Cc2ccccc2)CC1,-,-,-,-,-
CN(C)c1ccc(/C=C(\C#N)c2ccccc2)cc1,?,-,-,-,0.89µM
CN(C)c1cccc(/C=C(\C#N)c2ccccc2)c1,?,-,-,?,?
CN=c1scc(-c2ccc(OC)cc2)n1/N=C(\C)c1cccnc1,?,-,5µM,-,.
O=C(Nc1nc2c(Cl)cccc2s1)c1ccc([N+](=O)[O-])o1,-,-101,-,-,-
O=C(Nc1nc2ccc(F)cc2s1)c1ccc([N+](=O)[O-])o1,.,.,-,.,.

# High-throughput results as filed in PubChem.
